{"source": "patent US9090618B2", "about": "“Substituted benzimidazole-type piperidine compounds and uses thereof” (dated 2015)", "key": {"human μ-opioid receptors": {"target": "human μ-opioid receptors (Homo sapiens (Human), UniProt P35372)", "assay": "In vitro mu-opioid receptor binding assay ([3H]-diprenorphine displacement)"}, "kappa opioid receptor [1]": {"target": "T1, kappa opioid receptor (Homo sapiens (Human), UniProt P41145)", "assay": "In vitro kappa-opioid receptor [35S]GTPγS functional assay"}, "[2]": {"target": "T2, human opioid receptor-like (ORL-1) (Homo sapiens (Human), UniProt P41146)", "assay": "In vitro ORL-1 receptor [35S]GTPγS functional assay", "details": "for GTPγS ORL-1 Emax [mean ± SEM]: ORL-1 receptor activity response, procedure of Example 22"}, "[3]": {"target": "recombinant delta opioid receptor expressed in CHO-K1 cells (Homo sapiens (Human), UniProt P41143)", "assay": "In vitro delta-opioid receptor binding assay ([3H]-Naltrindole displacement)"}, "human μ-receptors": {"target": "human μ-receptors (Homo sapiens (Human), UniProt P35372)", "assay": "In vitro mu-opioid receptor [35S]GTPγS functional assay"}, "[4]": {"target": "T2, human opioid receptor-like (ORL-1)", "assay": "In vitro ORL-1 receptor binding assay ([3H]-nociceptin displacement)"}, "kappa opioid receptor [5]": {"target": "T1, kappa opioid receptor", "assay": "In vitro kappa-opioid receptor binding assay ([3H]-U69,593 displacement)"}}}
{"smiles": "O=C(O)CN1CCC/C(=C2/N(CC(=O)O)c3ccccc3N2[C@H]2C[C@H]3CCC[C@@H](C2)N3[C@@H]2C[C@@H]3CCCC[C@@H](C3)C2)C1", "values": [{"measurement": "Ki", "setting": "human μ-opioid receptors", "result": 11800, "unit": "nM"}, {"measurement": "EC50", "setting": "kappa opioid receptor [1]", "result": "> 20000", "unit": "nM"}, {"measurement": "EC50", "setting": "[2]", "result": 67, "unit": "nM"}, {"measurement": "GTPγS ORL-1 Emax [mean ± SEM]", "setting": "[2]", "result": "60 ± 1", "unit": "%"}, {"measurement": "Ki", "setting": "[3]", "result": 12100, "unit": "nM"}]}
{"smiles": "O=C(O)CCN1CCC[C@H](c2nc3ccccc3n2[C@H]2C[C@H]3CCC[C@@H](C2)N3[C@@H]2C[C@@H]3CCCC[C@@H](C3)C2)C1", "values": [{"measurement": "Ki", "setting": "human μ-opioid receptors", "result": "> 20000", "unit": "nM"}, {"measurement": "EC50", "setting": "kappa opioid receptor [1]", "result": "> 20000", "unit": "nM"}, {"measurement": "EC50", "setting": "[2]", "result": 78, "unit": "nM"}, {"measurement": "GTPγS ORL-1 Emax [mean ± SEM]", "setting": "[2]", "result": "41.7 ± 3.8", "unit": "%"}, {"measurement": "Ki", "setting": "[3]", "result": "> 20000", "unit": "nM"}]}
{"smiles": "O=C(O)CN1CCN(Cc2nc3ccccc3n2[C@H]2C[C@H]3CCC[C@@H](C2)N3[C@H]2C[C@@H]3CCC[C@@H](C3)C2)CC1", "values": [{"measurement": "Ki", "setting": "human μ-opioid receptors", "result": "> 20000", "unit": "nM"}, {"measurement": "EC50", "setting": "[2]", "result": 136, "unit": "nM"}, {"measurement": "GTPγS ORL-1 Emax [mean ± SEM]", "setting": "[2]", "result": "36.0 ± 3.2", "unit": "%"}]}
{"smiles": "NC(=O)/N=c1\\[nH]c2ccccc2n1C1CCN(C2CCCCCCC2)CC1", "values": [{"measurement": "EC50", "setting": "human μ-receptors", "result": 2760, "unit": "nM"}, {"measurement": "EC50", "setting": "kappa opioid receptor [1]", "result": 824, "unit": "nM"}, {"measurement": "EC50", "setting": "[2]", "result": 91.4, "unit": "nM"}, {"measurement": "GTPγS ORL-1 Emax [mean ± SEM]", "setting": "[2]", "result": "90.7 ± 3.5", "unit": "%"}]}
{"smiles": "O=C(O)CN1CCC[C@H](c2nc3ccccc3n2[C@H]2C[C@H]3CCC[C@@H](C2)N3[C@H]2C[C@@H]3CCC[C@@H](C3)C2)C1", "values": [{"measurement": "Ki", "setting": "human μ-opioid receptors", "result": "> 20000", "unit": "nM"}, {"measurement": "EC50", "setting": "[2]", "result": 1030, "unit": "nM"}, {"measurement": "GTPγS ORL-1 Emax [mean ± SEM]", "setting": "[2]", "result": "31.3 ± 2.7", "unit": "%"}, {"measurement": "Ki", "setting": "[3]", "result": "> 20000", "unit": "nM"}]}
{"smiles": "O=C(O)CCN1CCC(Cc2nc3ccccc3n2[C@H]2C[C@H]3CCC[C@@H](C2)N3[C@@H]2C[C@@H]3CCCC[C@@H](C3)C2)CC1", "values": [{"measurement": "Ki", "setting": "human μ-opioid receptors", "result": "> 20000", "unit": "nM"}, {"measurement": "EC50", "setting": "kappa opioid receptor [1]", "result": "> 20000", "unit": "nM"}, {"measurement": "EC50", "setting": "[2]", "result": 139, "unit": "nM"}, {"measurement": "GTPγS ORL-1 Emax [mean ± SEM]", "setting": "[2]", "result": "75.67 ± 0.88", "unit": "%"}, {"measurement": "Ki", "setting": "[3]", "result": "> 20000", "unit": "nM"}]}
{"smiles": "O=C(O)CN1CCC[C@H]1Cc1nc2ccccc2n1[C@H]1C[C@H]2CCC[C@@H](C1)N2[C@@H]1C[C@@H]2CCCC[C@@H](C2)C1", "values": [{"measurement": "EC50", "setting": "kappa opioid receptor [1]", "result": "> 20000", "unit": "nM"}, {"measurement": "EC50", "setting": "[2]", "result": 72.5, "unit": "nM"}, {"measurement": "GTPγS ORL-1 Emax [mean ± SEM]", "setting": "[2]", "result": "40.7 ± 0.9", "unit": "%"}, {"measurement": "Ki", "setting": "[4]", "result": 49, "unit": "nM"}]}
{"smiles": "Cn1cc(Cl)c(-c2nc3ccccc3n2[C@H]2C[C@H]3CCC[C@@H](C2)N3[C@@H]2C[C@@H]3CCCC[C@@H](C3)C2)n1", "values": [{"measurement": "EC50", "setting": "human μ-receptors", "result": 4750, "unit": "nM"}, {"measurement": "EC50", "setting": "kappa opioid receptor [1]", "result": "> 20000", "unit": "nM"}, {"measurement": "EC50", "setting": "[2]", "result": 22.6, "unit": "nM"}, {"measurement": "GTPγS ORL-1 Emax [mean ± SEM]", "setting": "[2]", "result": "29.3 ± 0.9", "unit": "%"}]}
{"smiles": "c1ccc2c(c1)nc(-c1cc[nH]n1)n2[C@H]1C[C@H]2CCC[C@@H](C1)N2[C@@H]1C[C@@H]2CCCC[C@@H](C2)C1", "values": [{"measurement": "EC50", "setting": "human μ-receptors", "result": 466, "unit": "nM"}, {"measurement": "EC50", "setting": "kappa opioid receptor [1]", "result": "> 20000", "unit": "nM"}, {"measurement": "EC50", "setting": "[2]", "result": 10.4, "unit": "nM"}, {"measurement": "GTPγS ORL-1 Emax [mean ± SEM]", "setting": "[2]", "result": "31.7 ± 0.9", "unit": "%"}]}
{"smiles": "c1ccc2c(c1)nc([C@H]1CCCN1)n2[C@H]1C[C@H]2CCC[C@@H](C1)N2[C@@H]1C[C@@H]2CCCC[C@@H](C2)C1", "values": [{"measurement": "EC50", "setting": "[2]", "result": 23.2, "unit": "nM"}, {"measurement": "GTPγS ORL-1 Emax [mean ± SEM]", "setting": "[2]", "result": "98.3 ± 2.0", "unit": "%"}, {"measurement": "Ki", "setting": "[4]", "result": 1.9, "unit": "nM"}]}
{"smiles": "O=C(O)CN1CCC(Cc2nc3ccccc3n2C2CC3CCCC(C2)N3C2CC3CCCCC(C3)C2)C1", "note": "(centres unmarked)", "values": [{"measurement": "Ki", "setting": "human μ-opioid receptors", "result": 4010, "unit": "nM"}, {"measurement": "EC50", "setting": "kappa opioid receptor [1]", "result": "> 20000", "unit": "nM"}, {"measurement": "Ki", "setting": "kappa opioid receptor [5]", "result": 344, "unit": "nM"}, {"measurement": "EC50", "setting": "[2]", "result": 43.1, "unit": "nM"}, {"measurement": "GTPγS ORL-1 Emax [mean ± SEM]", "setting": "[2]", "result": "51.7 ± 1.7", "unit": "%"}, {"measurement": "Ki", "setting": "[3]", "result": "> 20000", "unit": "nM"}]}
{"smiles": "c1ccc2c(c1)nc(-c1c[nH]cn1)n2[C@H]1C[C@H]2CCC[C@@H](C1)N2[C@@H]1C[C@@H]2CCCC[C@@H](C2)C1", "values": [{"measurement": "EC50", "setting": "human μ-receptors", "result": 564, "unit": "nM"}, {"measurement": "EC50", "setting": "kappa opioid receptor [1]", "result": "> 20000", "unit": "nM"}, {"measurement": "EC50", "setting": "[2]", "result": 28.4, "unit": "nM"}, {"measurement": "GTPγS ORL-1 Emax [mean ± SEM]", "setting": "[2]", "result": "26 ± 2", "unit": "%"}, {"measurement": "Ki", "setting": "[3]", "result": "> 20000", "unit": "nM"}]}
{"smiles": "CCN(CC)C(=O)CN1CCC[C@H]1Cc1nc2ccccc2n1[C@H]1C[C@H]2CCC[C@@H](C1)N2[C@@H]1C[C@@H]2CCCC[C@@H](C2)C1", "values": [{"measurement": "EC50", "setting": "[2]", "result": 355, "unit": "nM"}, {"measurement": "GTPγS ORL-1 Emax [mean ± SEM]", "setting": "[2]", "result": "48.7 ± 1.8", "unit": "%"}, {"measurement": "Ki", "setting": "[4]", "result": 167, "unit": "nM"}]}
{"smiles": "CCOC(=N)/N=c1\\[nH]c2ccccc2n1C1CCN(C2CCCCCCC2)CC1", "values": [{"measurement": "EC50", "setting": "human μ-receptors", "result": 3810, "unit": "nM"}, {"measurement": "EC50", "setting": "kappa opioid receptor [1]", "result": 721, "unit": "nM"}, {"measurement": "EC50", "setting": "[2]", "result": 46.7, "unit": "nM"}, {"measurement": "GTPγS ORL-1 Emax [mean ± SEM]", "setting": "[2]", "result": "106.3 ± 8.8", "unit": "%"}]}
